Data reported in US20100227853A1, “INHIBITORS OF CYCLIC AMP PHOSPHODIESTERASES” (Trustees of Boston College, priority 2008, published 2010).
pIC50: −log10 of the molar value.

By UniProt entry, the sequences of proteins in these tests, tags left out. Residues count along the entry.
UniProt Q07343, 1-564 isoform 2: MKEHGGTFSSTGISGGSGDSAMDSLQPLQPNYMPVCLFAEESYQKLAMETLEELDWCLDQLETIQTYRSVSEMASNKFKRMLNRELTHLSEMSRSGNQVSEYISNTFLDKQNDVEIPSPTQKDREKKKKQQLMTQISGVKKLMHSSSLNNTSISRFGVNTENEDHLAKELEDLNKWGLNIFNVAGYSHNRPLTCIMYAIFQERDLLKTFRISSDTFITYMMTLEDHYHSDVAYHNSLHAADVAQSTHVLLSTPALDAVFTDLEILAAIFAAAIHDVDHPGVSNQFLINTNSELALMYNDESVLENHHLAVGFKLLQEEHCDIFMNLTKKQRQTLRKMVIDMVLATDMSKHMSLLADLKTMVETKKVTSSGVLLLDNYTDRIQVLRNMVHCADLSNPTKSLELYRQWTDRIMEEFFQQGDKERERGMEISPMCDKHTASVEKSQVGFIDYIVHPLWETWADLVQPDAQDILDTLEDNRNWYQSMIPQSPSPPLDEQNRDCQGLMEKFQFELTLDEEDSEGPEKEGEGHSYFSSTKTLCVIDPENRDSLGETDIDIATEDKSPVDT
UniProt Q08499, 303-809: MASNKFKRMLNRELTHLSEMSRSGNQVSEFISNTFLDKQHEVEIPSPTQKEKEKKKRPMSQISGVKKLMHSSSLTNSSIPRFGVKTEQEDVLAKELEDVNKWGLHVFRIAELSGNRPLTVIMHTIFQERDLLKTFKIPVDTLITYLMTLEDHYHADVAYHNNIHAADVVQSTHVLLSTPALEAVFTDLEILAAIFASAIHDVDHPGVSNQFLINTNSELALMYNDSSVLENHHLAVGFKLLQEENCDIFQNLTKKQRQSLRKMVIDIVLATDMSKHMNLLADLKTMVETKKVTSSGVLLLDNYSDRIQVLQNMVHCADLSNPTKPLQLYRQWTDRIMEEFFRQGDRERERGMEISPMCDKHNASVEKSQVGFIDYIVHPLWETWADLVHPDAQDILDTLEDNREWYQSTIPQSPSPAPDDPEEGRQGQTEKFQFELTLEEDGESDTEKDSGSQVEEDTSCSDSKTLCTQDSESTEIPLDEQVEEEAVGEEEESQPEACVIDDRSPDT
UniProt P27815, 1-825 isoform 6: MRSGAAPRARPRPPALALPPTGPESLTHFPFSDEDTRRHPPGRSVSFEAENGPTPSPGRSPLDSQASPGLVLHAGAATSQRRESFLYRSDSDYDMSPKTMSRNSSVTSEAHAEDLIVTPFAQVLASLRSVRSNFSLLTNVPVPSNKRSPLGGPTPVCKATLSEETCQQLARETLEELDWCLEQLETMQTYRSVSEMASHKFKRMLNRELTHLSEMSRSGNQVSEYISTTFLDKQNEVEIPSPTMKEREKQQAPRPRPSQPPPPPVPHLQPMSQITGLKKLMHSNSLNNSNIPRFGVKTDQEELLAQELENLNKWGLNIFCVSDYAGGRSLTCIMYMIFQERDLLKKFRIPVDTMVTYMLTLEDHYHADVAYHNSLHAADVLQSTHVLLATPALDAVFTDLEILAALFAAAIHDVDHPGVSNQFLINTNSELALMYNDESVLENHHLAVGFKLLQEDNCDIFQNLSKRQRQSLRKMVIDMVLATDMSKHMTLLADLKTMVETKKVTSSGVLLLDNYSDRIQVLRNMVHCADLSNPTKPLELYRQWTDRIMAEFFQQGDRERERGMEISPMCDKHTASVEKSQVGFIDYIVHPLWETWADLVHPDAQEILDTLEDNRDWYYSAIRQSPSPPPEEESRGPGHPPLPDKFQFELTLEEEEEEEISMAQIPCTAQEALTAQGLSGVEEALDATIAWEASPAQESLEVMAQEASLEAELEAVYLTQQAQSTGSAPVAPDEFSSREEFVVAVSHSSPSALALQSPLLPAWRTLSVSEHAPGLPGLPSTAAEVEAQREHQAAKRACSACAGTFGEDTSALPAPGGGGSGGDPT
UniProt Q9NP56, 97-420 limits assumed: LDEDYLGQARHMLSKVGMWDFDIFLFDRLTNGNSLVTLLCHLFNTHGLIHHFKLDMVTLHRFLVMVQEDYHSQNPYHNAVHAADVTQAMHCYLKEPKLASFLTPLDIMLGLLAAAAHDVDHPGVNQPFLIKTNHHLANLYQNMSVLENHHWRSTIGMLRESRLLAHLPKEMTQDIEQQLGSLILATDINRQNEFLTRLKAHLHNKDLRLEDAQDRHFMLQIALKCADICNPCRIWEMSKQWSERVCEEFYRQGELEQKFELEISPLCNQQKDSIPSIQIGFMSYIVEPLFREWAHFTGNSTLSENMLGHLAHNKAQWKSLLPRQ
UniProt Q13946, whole entry: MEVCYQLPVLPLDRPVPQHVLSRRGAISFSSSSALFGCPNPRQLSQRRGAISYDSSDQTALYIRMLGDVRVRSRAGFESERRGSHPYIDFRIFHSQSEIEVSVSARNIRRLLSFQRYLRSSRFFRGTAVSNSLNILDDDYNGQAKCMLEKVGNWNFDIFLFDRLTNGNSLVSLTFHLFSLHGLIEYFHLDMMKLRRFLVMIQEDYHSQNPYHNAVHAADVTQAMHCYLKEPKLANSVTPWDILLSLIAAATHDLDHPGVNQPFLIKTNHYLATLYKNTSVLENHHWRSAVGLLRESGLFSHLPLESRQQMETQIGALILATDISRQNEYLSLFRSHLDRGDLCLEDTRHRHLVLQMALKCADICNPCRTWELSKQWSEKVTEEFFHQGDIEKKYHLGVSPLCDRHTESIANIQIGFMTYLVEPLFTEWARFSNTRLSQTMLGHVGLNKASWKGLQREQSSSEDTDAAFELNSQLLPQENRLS

Columns and labels:
PDE4B2 = PDE4B2 (Homo sapiens, UniProt Q07343); experiment: in vitro enzyme assay, E. coli expressed and purified PDE4B2; format: biochemical; details: read-out: IC50 (or AC200), PDE4B2
PDE4D2-FL = PDE4D2-FL (Homo sapiens, UniProt Q08499); experiment: in vitro enzyme assay, full-length PDE4D2 (residues 1-507); format: biochemical; details: read-out: IC50 (or AC200), PDE4D2-FL
PDE4A10 = PDE4A10 (Homo sapiens, UniProt P27815); experiment: in vitro enzyme assay, E. coli expressed and purified PDE4A10; format: biochemical; details: read-out: IC50 (or AC200), PDE4A10
PDE7B = PDE7B (Homo sapiens, UniProt Q9NP56); experiment: in vitro enzyme assay, PDE7B catalytic domain from E. coli, hydrolysis of cAMP to AMP; details: read-out: IC50 (or AC200), PDE7B; AC200 = [Compound] that doubles PDE activity
PDE7A = PDE7A (Homo sapiens, UniProt Q13946); experiment: in vitro enzyme assay PDE7A; format: biochemical; details: read-out: IC50 (or AC200), PDE7A; E. coli expressed and purified enzyme

pIC50 (PDE4B2)	pIC50 (PDE4D2-FL)	pIC50 (PDE4A10)	pIC50 (PDE7B)	pIC50 (PDE7A)	Structure (SMILES)
7.30	> 5.70	7.05			CCOC(=O)c1cc2c(=O)n3ccccc3nc2n(C2CCCCC2)c1=NC(C)=O (single isomer, unassigned)
< 5.00	< 5.70	< 5.00	5.82	6.19	Cc1sc2ncnc(NC3CCCCC3)c2c1C [BC28]
